Data published in ChEMBL document CHEMBL1137633, “2,N6-disubstituted adenosine analogs with antitrypanosomal and antimalarial activities” (Antimicrob Agents Chemother, 2007).
pIC50: −log10 of the molar value.

Assay: Cytotoxicity against HEK293T cells after 16 hrs by alamar blue staining
Assay type: cell-based, Homo sapiens
Conditions: hek-293t

**Q.** With O=[As]c1ccccc1 (stereo unspecified) as the compound, how does the pIC50 read?
**A.** 5.91
